Measured values taken from patent US10213415B2, “Compounds as opioid receptor modulators” (JANSSEN PHARMACEUTICA NV, priority 2004, dated 2019).

Chains of the proteins cited; added tags and fusions are not shown.
UniProt P35372, whole entry: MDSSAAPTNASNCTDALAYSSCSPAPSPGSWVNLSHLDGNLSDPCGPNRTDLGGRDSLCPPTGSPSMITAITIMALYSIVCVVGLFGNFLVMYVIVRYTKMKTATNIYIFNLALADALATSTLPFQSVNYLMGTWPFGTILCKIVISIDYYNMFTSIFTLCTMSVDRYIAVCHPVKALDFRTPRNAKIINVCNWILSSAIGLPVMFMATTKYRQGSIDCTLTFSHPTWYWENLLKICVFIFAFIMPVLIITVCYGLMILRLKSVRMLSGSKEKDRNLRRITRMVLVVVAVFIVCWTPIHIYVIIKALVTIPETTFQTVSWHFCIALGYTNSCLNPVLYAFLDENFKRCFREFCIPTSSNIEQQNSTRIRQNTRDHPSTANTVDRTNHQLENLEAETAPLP

How the values were obtained:
[1] = test system: male CD-1 mice; experiment: In Vivo Assay: Stress-Induced Entire GI Tract Transit (MEGIT, MEGIT-NES, MEGIT-RS); set-up: species or system mouse; conditions: dose 20 p.o., restraint stress
Method: Methods: The animals used in these studies are male CD-1 mice, ave. wt. ˜30 g. Procedure: Mice were housed in LAM under 12 h/12 h light/dark cycle, food & water ad lib. On the day before the experiments, the mice assigned to the “acclimated” (non-stressed) control group were placed into individual wire mesh-bottomed cages, provided food and water ad lib. The acclimated control group was in this new environment for 16-18 hrs prior to beginning the test. On the day of the experiment, mice assigned to experimental groups were housed in home cages were transported to procedure room and remain in their home cages until the start of the transit portion of the study. […] One hour after administration of carmine, the fecal pellet output of each animal was recorded. […] The number of mice that excreted a carmine-containing fecal pellet at the end of each hour post carmine administration was recorded, until all mice had excreted carmine in a fecal pellet or the end of 6 hrs post carmine administration, whichever occurred first. […] The mouse entire GI tract (MEGIT) transit test can thus be done in mice that are all acclimated (non-stressed), in which case the data are expressed as % control (vehicle only), or in mice that are exposed to NES or RS, in which cases the data are expressed as % of the vehicle treated NES or RS group.

[2] = target: mu opioid receptor (CHO-hMOR cell membranes) (Homo sapiens, UniProt P35372); experiment: Mu Opioid Receptor Functional Assay: [35S]GTPγS Binding in CHO-hMOR Cell Membranes, Versions 1 and 2
Method: CHO-hMOR cell membranes were purchased from Receptor Biology, Inc. (Baltimore, Md.). About 10 mg/ml of membrane protein was suspended in 10 mM TRIS-HCl pH 7.2, 2 mM EDTA, 10% sucrose, and the suspension kept on ice. One ml of membranes was added to 15 ml cold binding assay buffer containing 50 mM HEPES, pH 7.6, 5 mM MgCl2, 100 mM NaCl, 1 mM DTT and 1 mM EDTA. The membrane suspension was homogenized with a Polytron and centrifuged at 3,000 rpm for 10 min. The supernatant was then centrifuged at 18,000 rpm for 20 min. The pellet was resuspended in 10 ml assay buffer with a Polytron.
The membranes were preincubated with wheat germ agglutinin coated SPA beads (Amersham) at 25° C. for 45 min in the assay buffer. The SPA bead (5 mg/ml) coupled membranes (10 μg/ml) were then incubated with 0.5 nM [^35S]GTPγS in the assay buffer. […] A range of concentrations of receptor agonists was used to stimulate [^35S]GTPγS binding. Both basal and non-specific binding was tested in the absence of agonist; non-specific binding determination included 10 μM unlabeled GTPγS.
Compounds were tested for function as antagonists by evaluating their potential to inhibit agonist-stimulated GTPγS binding. Radioactivity was quantified on a Packard TopCount. The following parameters were calculated:
[formula] % Inhibition=(% stimulation by 1 μM SNC80−% stimulation by 1 μM SNC80 in presence of test compound)×100/(% Stimulation by 1 μM SNC80−100)
EC50 values were calculated using GraphPad Prism.

## C[C@@H](c1nc(-c2ccccc2)c[nH]1)N(Cc1cccc(C(=O)O)c1)C(=O)[C@@H](N)Cc1ccc(C(N)=O)cc1
[1]
  MEGIT-RS entire GI transit 5 hr (% RS): 112.5 % RS
[2]; read-out: MOR GTP binding assay v2 EC50, version 2
  EC50: 0.056 µM
[2]; version 2, % inhibition of agonist-stimulated GTPγS binding
  MOR GTP binding assay_v2 (% I): 6.61%
